According to ChEMBL document CHEMBL3351825, “Polyoxypregnane steroids from the stems of Marsdenia tenacissima” (J Nat Prod, 2014):

Tests used:
Assay type in all cases: cell-based
SW-620 [1] = experiment: Reversal of P-gp-mediated resistance assessed as ratio of doxorubicin IC50 for human SW620/AD300 cells to doxorubicin IC50 for human SW620 cells in presence of compound at 10 uM
SW-620 [2] = experiment: Reversal of P-gp-mediated resistance assessed as ratio of cisplatin IC50 for human SW620/AD300 cells to cisplatin IC50 for human SW620 cells in presence of compound at 2 uM
SW-620 [3] = experiment: Reversal of P-gp-mediated resistance assessed as ratio of cisplatin IC50 for human SW620/AD300 cells to cisplatin IC50 for human SW620 cells in presence of compound at 10 uM
SW-620 [4] = experiment: Reversal of P-gp-mediated resistance assessed as ratio of doxorubicin IC50 for human SW620/AD300 cells to doxorubicin IC50 for human SW620 cells in presence of compound at 2 uM

Structure (SMILES)	Ratio IC50 (SW-620 [1])	other results
CO[C@H]1[C@@H](O)[C@H](O[C@@H]2[C@@H](C)O[C@@H](O[C@H]3CC[C@@]4(C)[C@@H](CC[C@]56OC7(C)OC([C@H]45)[C@@H](O)[C@]4(C)[C@H]7CC[C@@H]64)C3)C[C@H]2OC)O[C@H](C)[C@H]1O	198	
CO[C@H]1[C@@H](O)[C@H](O[C@@H]2[C@@H](C)O[C@@H](O[C@H]3CC[C@@]4(C)[C@@H](CC[C@@]56O[C@@]57CC[C@H](C(C)=O)[C@@]7(C)[C@H](O)[C@@H](OC(=O)c5ccccc5)[C@H]46)C3)C[C@H]2OC)O[C@H](C)[C@H]1O	138	
C/C=C(\C)C(=O)O[C@@H]1[C@@H](O)[C@]2(C)[C@@H](C(C)=O)CC[C@@]23O[C@]32CC[C@H]3C[C@@H](O[C@H]4C[C@@H](OC)[C@H](O[C@@H]5O[C@H](C)[C@@H](O[C@@H]6O[C@H](CO)[C@@H](O)[C@H](O)[C@H]6O)[C@@H](OC)[C@H]5O)[C@@H](C)O4)CC[C@]3(C)[C@@H]12	133	
C/C=C(\C)C(=O)O[C@@H]1[C@@H](O)[C@]2(C)[C@@H](C(C)=O)CC[C@@]23O[C@]32CC[C@H]3C[C@@H](O[C@H]4C[C@@H](OC)[C@H](O[C@@H]5O[C@H](C)[C@@H](O)[C@@H](OC)[C@H]5O)[C@@H](C)O4)CC[C@]3(C)[C@@H]12	213	
CO[C@H]1[C@@H](O)[C@H](O[C@@H]2[C@@H](C)O[C@@H](O[C@H]3CC[C@@]4(C)[C@@H](CC[C@@]56O[C@@]57CC[C@H](C(C)=O)[C@@]7(C)[C@H](O)[C@@H](O)[C@H]46)C3)C[C@H]2OC)O[C@H](C)[C@H]1O[C@@H]1O[C@H](CO)[C@@H](O)[C@H](O)[C@H]1O	165	
CO[C@H]1[C@@H](O)[C@H](O[C@@H]2[C@@H](C)O[C@@H](O[C@H]3CC[C@@]4(C)[C@@H](CC[C@@]56O[C@@]57CC[C@H](C(C)=O)[C@@]7(C)[C@H](O)[C@@H](OC(C)=O)[C@H]46)C3)C[C@H]2OC)O[C@H](C)[C@H]1O	130	
CCC(C)C(=O)O[C@@H]1[C@@H](OC(C)=O)[C@]2(C)[C@@H](C(C)=O)CC[C@@]23O[C@]32CC[C@H]3CC(=O)CC[C@]3(C)[C@@H]12 (stereo partly specified)	4	Ratio IC50 (SW-620 [2]): 1; Ratio IC50 (SW-620 [3]): 1.1; Ratio IC50 (SW-620 [4]): 19
CO[C@H]1[C@@H](O)[C@H](O[C@@H]2[C@@H](C)O[C@@H](O[C@H]3CC[C@@]4(C)[C@@H](CC[C@@]56O[C@@]57CC[C@H](C(C)=O)[C@@]7(C)[C@H](OC(C)=O)[C@@H](OC(=O)c5ccccc5)[C@H]46)C3)C[C@H]2OC)O[C@H](C)[C@H]1O[C@@H]1O[C@H](CO)[C@@H](O[C@@H]2O[C@H](CO)[C@@H](O)[C@H](O)[C@H]2O)[C@H](O)[C@H]1O	168	
